Where a name gives a salt, the structure may show the parent alone. Only a part is listed here, and it is no random draw.
Target: PARP1 L713F-nLuc biosensor (HCT116) (UniProt P09874)
Test: PARP1 L713F-nLuc/akaLuc ratio relative to DMSO control (biosensor stabilization) (fold change); higher = more PARP1 biosensor stabilization (target engagement / stabilizer), active = hit call of the paper
Settings: stock concentration (mM; final µM = stock mM x 1): 10; 24 h;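 active = log2 fold change beyond 2 SD from the library mean after excluding viability outliers; inactive = within 2 SD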

Cn1ncnc1[C@H]1c2n[nH]c(=O)c3cc(F)cc(c23)N[C@@H]1c1ccc(F)cc1 [Talazoparib tosylate]
PARP1 L713F-nLuc/akaLuc ratio: active: 3.37

Cn1ncnc1[C@H]1c2n[nH]c(=O)c3cc(F)cc(c23)N[C@@H]1c1ccc(F)cc1 [Talazoparib]
PARP1 L713F-nLuc/akaLuc ratio: active: 3.66

— the supplement of paper PMC11624193, “Coupling cellular drug-target engagement to downstream pharmacology with CeTEAM” (Nature Communications, 2024)
